# Measured values published in the Human Domainome abundance scans (Beltran et al. 2025).
# ± gives the uncertainty stated by the source.
# B1: X-ray repair cross-complementing protein 6, residues 558 to 609; numbered along this chain, P12956 (parent)
# chain: EYSEEELKTHISKGTLGKFTVPMLKEACRAYGLKSGLKKQELLEALTKHFQD
# Variants of: B1
# Test: abundance fitness (aPCA) (normalised: wild type 0, dead -1); higher = more abundant; growth selection in yeast, the domain comes from the species named
# Settings: Homo sapiens
row,Variant,abundance fitness
1,EYSEEGLKTHISKGTLGKFTVPMLKEACRAYGLKSGLKKQELLEALTKHFQD,-0.166 ± 0.034
2,EYSEEALKTHISKGTLGKFTVPMLKEACRAYGLKSGLKKQELLEALTKHFQD,0.049 ± 0.039
3,EYSEECLKTHISKGTLGKFTVPMLKEACRAYGLKSGLKKQELLEALTKHFQD,-0.128 ± 0.034
4,EYSEEPLKTHISKGTLGKFTVPMLKEACRAYGLKSGLKKQELLEALTKHFQD,-0.678 ± 0.039
5,EYSEEHLKTHISKGTLGKFTVPMLKEACRAYGLKSGLKKQELLEALTKHFQD,-0.072 ± 0.032
6,EYSEEILKTHISKGTLGKFTVPMLKEACRAYGLKSGLKKQELLEALTKHFQD,0.028 ± 0.032
7,EYSEEDLKTHISKGTLGKFTVPMLKEACRAYGLKSGLKKQELLEALTKHFQD,-0.017 ± 0.038
8,EYSEEQLKTHISKGTLGKFTVPMLKEACRAYGLKSGLKKQELLEALTKHFQD,-0.085 ± 0.037
9,EYSEENLKTHISKGTLGKFTVPMLKEACRAYGLKSGLKKQELLEALTKHFQD,0.07 ± 0.038
10,EYSEERLKTHISKGTLGKFTVPMLKEACRAYGLKSGLKKQELLEALTKHFQD,-0.002 ± 0.033
11,EYSEELLKTHISKGTLGKFTVPMLKEACRAYGLKSGLKKQELLEALTKHFQD,-0.053 ± 0.032
12,EYSEEFLKTHISKGTLGKFTVPMLKEACRAYGLKSGLKKQELLEALTKHFQD,-0.025 ± 0.034
13,EYSEEKLKTHISKGTLGKFTVPMLKEACRAYGLKSGLKKQELLEALTKHFQD,0.069 ± 0.042
14,EYSEFELKTHISKGTLGKFTVPMLKEACRAYGLKSGLKKQELLEALTKHFQD,-0.15 ± 0.04
15,EYSEMELKTHISKGTLGKFTVPMLKEACRAYGLKSGLKKQELLEALTKHFQD,-0.167 ± 0.036
16,EYSELELKTHISKGTLGKFTVPMLKEACRAYGLKSGLKKQELLEALTKHFQD,-0.161 ± 0.031
17,EYSETELKTHISKGTLGKFTVPMLKEACRAYGLKSGLKKQELLEALTKHFQD,-0.082 ± 0.032
18,EYSESELKTHISKGTLGKFTVPMLKEACRAYGLKSGLKKQELLEALTKHFQD,-0.048 ± 0.03
19,EYSEAELKTHISKGTLGKFTVPMLKEACRAYGLKSGLKKQELLEALTKHFQD,-0.062 ± 0.035
20,EYSERELKTHISKGTLGKFTVPMLKEACRAYGLKSGLKKQELLEALTKHFQD,-0.168 ± 0.034
21,EYSEPELKTHISKGTLGKFTVPMLKEACRAYGLKSGLKKQELLEALTKHFQD,-0.355 ± 0.032
22,EYSENELKTHISKGTLGKFTVPMLKEACRAYGLKSGLKKQELLEALTKHFQD,-0.217 ± 0.033
23,EYSEKELKTHISKGTLGKFTVPMLKEACRAYGLKSGLKKQELLEALTKHFQD,-0.137 ± 0.037
24,EYSEIELKTHISKGTLGKFTVPMLKEACRAYGLKSGLKKQELLEALTKHFQD,-0.111 ± 0.035
25,EYSECELKTHISKGTLGKFTVPMLKEACRAYGLKSGLKKQELLEALTKHFQD,-0.315 ± 0.037

row,Variant,abundance fitness
1,EYSEDELKTHISKGTLGKFTVPMLKEACRAYGLKSGLKKQELLEALTKHFQD,-0.088 ± 0.041
2,EYSEVELKTHISKGTLGKFTVPMLKEACRAYGLKSGLKKQELLEALTKHFQD,-0.162 ± 0.035
3,EYSEYELKTHISKGTLGKFTVPMLKEACRAYGLKSGLKKQELLEALTKHFQD,-0.134 ± 0.034
4,EYSEWELKTHISKGTLGKFTVPMLKEACRAYGLKSGLKKQELLEALTKHFQD,-0.271 ± 0.036
5,EYSEGELKTHISKGTLGKFTVPMLKEACRAYGLKSGLKKQELLEALTKHFQD,-0.194 ± 0.039
6,EYSEHELKTHISKGTLGKFTVPMLKEACRAYGLKSGLKKQELLEALTKHFQD,-0.189 ± 0.036
7,EYSEQELKTHISKGTLGKFTVPMLKEACRAYGLKSGLKKQELLEALTKHFQD,-0.175 ± 0.036
8,EYSHEELKTHISKGTLGKFTVPMLKEACRAYGLKSGLKKQELLEALTKHFQD,-0.302 ± 0.059
9,EYSYEELKTHISKGTLGKFTVPMLKEACRAYGLKSGLKKQELLEALTKHFQD,-0.208 ± 0.06
10,EYSNEELKTHISKGTLGKFTVPMLKEACRAYGLKSGLKKQELLEALTKHFQD,-0.417 ± 0.088
11,EYSIEELKTHISKGTLGKFTVPMLKEACRAYGLKSGLKKQELLEALTKHFQD,-0.045 ± 0.072
12,EYSGEELKTHISKGTLGKFTVPMLKEACRAYGLKSGLKKQELLEALTKHFQD,-0.397 ± 0.039
13,EYSTEELKTHISKGTLGKFTVPMLKEACRAYGLKSGLKKQELLEALTKHFQD,-0.096 ± 0.054
14,EYSWEELKTHISKGTLGKFTVPMLKEACRAYGLKSGLKKQELLEALTKHFQD,-0.377 ± 0.039
15,EYSSEELKTHISKGTLGKFTVPMLKEACRAYGLKSGLKKQELLEALTKHFQD,-0.231 ± 0.041
16,EYSPEELKTHISKGTLGKFTVPMLKEACRAYGLKSGLKKQELLEALTKHFQD,-0.168 ± 0.04
17,EYSKEELKTHISKGTLGKFTVPMLKEACRAYGLKSGLKKQELLEALTKHFQD,-0.181 ± 0.043
18,EYSREELKTHISKGTLGKFTVPMLKEACRAYGLKSGLKKQELLEALTKHFQD,-0.298 ± 0.04
19,EYSFEELKTHISKGTLGKFTVPMLKEACRAYGLKSGLKKQELLEALTKHFQD,-0.109 ± 0.057
20,EYSVEELKTHISKGTLGKFTVPMLKEACRAYGLKSGLKKQELLEALTKHFQD,-0.162 ± 0.048
21,EYSLEELKTHISKGTLGKFTVPMLKEACRAYGLKSGLKKQELLEALTKHFQD,-0.246 ± 0.037
22,EYSQEELKTHISKGTLGKFTVPMLKEACRAYGLKSGLKKQELLEALTKHFQD,-0.285 ± 0.054
23,EYSMEELKTHISKGTLGKFTVPMLKEACRAYGLKSGLKKQELLEALTKHFQD,-0.168 ± 0.052
24,EYSCEELKTHISKGTLGKFTVPMLKEACRAYGLKSGLKKQELLEALTKHFQD,-0.158 ± 0.058
25,EYSDEELKTHISKGTLGKFTVPMLKEACRAYGLKSGLKKQELLEALTKHFQD,-0.356 ± 0.076
